Results taken from patent US20210330611A1, “THERAPY FOR NEUROLOGICAL DISEASES/DISORDERS” (priority 2020, published 2021).
Counter-ions that a name gives are not always drawn. Like-named read-outs stand apart in the source and are kept apart here.

Experiments:
primary rat microglia [1] = test system: primary rat microglia;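 on Fibrin % cell toxicity: share of dead cells sized under 150 µm2 at 10 µM in fibrin-stimulated microglia HTS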
primary rat microglia [2] = test system: primary rat microglia; remark: listed apart in the source;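 on Fibrin % cell toxicity: share of dead cells sized under 150 µm2 at 10 µM in fibrin-stimulated microglia HTS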
[3] = test system: fibrin-induced microglia activation; assay: Image-based assay of fibrin-induced microglia activation (HTS and dose response)
[4] = test system: LPS-induced microglia activation; assay: Image-based assay of LPS-induced microglia activation (HTS and dose response); details: Rattus norvegicus

Compound	LPS % cell toxicity (primary rat microglia [2]; rat)	Fibrin % cell toxicity (primary rat microglia [1]; rat)	further results
C[C@H](N)[C@H](O)c1ccccc1.Cl			Fibrin % cell toxicity (primary rat microglia [1]): 1%; LPS % cell toxicity (primary rat microglia [2]): 0%
CC(=O)Oc1c(C)c(C)c2c(c1C)CCC(C)(CCCC(C)CCCC(C)CCCC(C)C)O2 (stereo not drawn) [Alpha-tochopheryl Acetate]			Fibrin % cell toxicity (primary rat microglia [1]): 1%; LPS % cell toxicity (primary rat microglia [2]): 0%
CC1(C)S[C@@H]2[C@H](NC(=O)[C@H](N)c3ccc(O)cc3)C(=O)N2[C@H]1C(=O)O [Amoxicillin]	0%		
CNCC[C@@H](Oc1ccccc1C)c1ccccc1 [Atomoxetine Hydrochloride]	1%		
CC1=C(/C=C/C(C)=C/C=C/C(C)=C/C=C/C=C(C)/C=C/C=C(C)/C=C/C2=C(C)CCCC2(C)C)C(C)(C)CCC1 [Beta-carotene]	0%		
CC(=O)O[C@]1(C(C)=O)CC[C@H]2[C@@H]3C=C(Cl)C4=CC(=O)CC[C@]4(C)[C@H]3CC[C@@]21C [Chlormadinone acetate, reference compound]			IC50 ([3]; Rattus norvegicus, Microglia, 48 h, read-out: Fibrin IC50, Table 1, dose response 0.001-20 μM, triplicates, primary rat microglia, 48 h): 17 µM; IC50 ([3]; Rattus norvegicus, Microglia, read-out: Fibrin IC50 (uM) (Suppl. Table 7), fibrin-induced microglia activation, dose response): 17 µM; IC50 ([3]; Rattus norvegicus, Microglia, read-out: Fibrin IC50 (uM), dose response, fibrin-induced microglia activation): 17 µM
CC(=O)[C@@]1(O)CC[C@H]2[C@@H]3C=C(Cl)C4=CC(=O)[C@@H]5C[C@@H]5[C@]4(C)[C@H]3CC[C@@]21C [Cyproterone, reference compound]			IC50 ([3]; read-out: Fibrin IC50 (uM) (Suppl. Table 7), fibrin-induced microglia activation, dose response): 17 µM; IC50 ([3]; read-out: Fibrin IC50, Table 1, dose response 0.001-20 μM, triplicates, primary rat microglia, 48 h): 17 µM; IC50 ([3]; read-out: Fibrin IC50, dose response, fibrin-induced microglia activation): 17 µM
Cc1c(C(N)=O)cc([N+](=O)[O-])cc1[N+](=O)[O-] [Dinitolmide]		1%	
OCCN(CCO)c1nc(N2CCCCC2)c2nc(N(CCO)CCO)nc(N3CCCCC3)c2n1 [Dipyridamole]		1%	
O=C(CCCN1CC=C(n2c(=O)[nH]c3ccccc32)CC1)c1ccc(F)cc1 [Droperidol]	1%	1%	
C[C@]12CC[C@@H]3c4ccc(O)cc4CC[C@H]3[C@@H]1C[C@H](O)[C@@H]2O [Epiestriol]	0%	0%	
C[C@]12CC[C@@H]3c4ccc(O)cc4CC[C@H]3[C@@H]1C[C@@H](O)[C@@H]2O [Estriol]	1%	1%	
NC(N)=Nc1nc(CSCCC(N)=NS(N)(=O)=O)cs1 [Famotidine]	0%		
C[C@]12CCC(=O)C=C1CC[C@@H]1[C@@H]2[C@@H](O)C[C@@]2(C)[C@H]1CC[C@]2(O)C(=O)CO [Hydrocortisone, reference compound]			Fibrin Selectivity (LOG10) [3]: 2.75
CC[C@H](C)C(=O)O[C@H]1C[C@@H](C)C=C2C=C[C@H](C)[C@H](CC[C@@H]3C[C@@H](O)CC(=O)O3)[C@H]21 [Lovastatin]	2%		
C[C@H]1C[C@@H]2[C@H]([C@@H](O)C[C@@]3(C)[C@H]2CC[C@]3(O)C(=O)CO)[C@@]2(C)C=CC(=O)C=C12 [Methylprednisolone, reference compound]			Fibrin Selectivity [3]: 15; Fibrin Selectivity (LOG10) [3]: 1.19

Compound	LPS % cell toxicity (primary rat microglia [2]; rat)	Fibrin % cell toxicity (primary rat microglia [1]; rat)	further results
CN1CCN2c3ccccc3Cc3ccccc3C2C1 (stereo not shown) [Mianserin]	0%	0%	
O=C1[O][Pt]2([NH][C@@H]3CCCC[C@H]3[NH]2)[O]C1=O [Oxaliplatin, reference compound]			Fibrin Selectivity [3]: 3; Fibrin Selectivity (LOG10) [3]: 0.48
[H]/N=C(/N)N/C(=N/[H])NCCc1ccccc1 [Phenformin]	0%		
CC(N)C(O)c1ccccc1 (stereo not shown) [Phenylpropanolamine]	1%	1%	
O=C(CCBr)N1CCN(C(=O)CCBr)CC1 [Pipobroman]		0%	
C[C@]12CC[C@H](O)CC1=CC[C@@H]1[C@@H]2CC[C@]2(C)C(=O)CC[C@@H]12 [Prasterone]	0%		
CC(C)C[C@H](CN)CC(=O)O [Pregabalin]	0%	1%	
CCC1(c2ccccc2)C(=O)NCNC1=O [Primidone]	0%		
CN1CCc2cccc3c2[C@H]1Cc1ccc(O)c(O)c1-3.Cl [R(−)-Apomorphine hydrochloride, reference compound]			LPS % cell toxicity (primary rat microglia [2]): 0%
NC(=O)c1ncn([C@@H]2O[C@H](CO)[C@@H](O)[C@H]2O)n1 [Ribavirin, reference compound]		2%	Fibrin Selectivity [3]: 2; Fibrin Selectivity (LOG10) [3]: 0.29
CN(N=O)C(=O)N[C@@H](C=O)[C@@H](O)[C@H](O)[C@H](O)CO [Streptozocin]		0%	
C[C@]12CC[C@H]3[C@@H](CCC4=CC(=O)CC[C@@]43C)[C@@H]1CC[C@@H]2O [Testosterone]	0%		
Cc1cccc(N(C)C(=S)Oc2ccc3ccccc3c2)c1 [Tolnaftate, reference compound]			IC50 ([4]; 48 h, read-out: LPS IC50, Table 1, dose response 0.001-20 μM, triplicates, primary rat microglia, 48 h): 17 µM; IC50 ([4]; read-out: LPS IC50 (uM) (Suppl. Table 7), LPS-induced microglia activation, dose response): 17 µM; IC50 ([4]; read-out: LPS IC50 (uM) (Suppl. Table 7), Table 3): 17 µM; IC50 ([4]; read-out: LPS IC50 (uM), dose response, LPS-induced microglia activation): 17 µM
Benzalkonium Chloride			Fibrin % inhibition ([3]; primary microglia HTS, fibrin stimulation, increased cell size (>800 μm^2) as marker of activation): 112%
Hydrocortisone hemisuccinate [reference compound]			Fibrin Selectivity [3]: 350; Fibrin Selectivity (LOG10) [3]: 2.54
podophyllotoxin acetate			IC50 ([3]; read-out: fib_IC50, Table 7): 0.022 µM
